Patent US7407982B2, “Oligo or polyalkylene glycol-coupled thrombin inhibitors” (HaemoSys GmbH, priority 2001, dated 2008)

Sequences of proteins named here, by UniProt entry; tags and fusion partners are left off. Residues count along the entry.
UniProt P00760, 24-246 limits assumed: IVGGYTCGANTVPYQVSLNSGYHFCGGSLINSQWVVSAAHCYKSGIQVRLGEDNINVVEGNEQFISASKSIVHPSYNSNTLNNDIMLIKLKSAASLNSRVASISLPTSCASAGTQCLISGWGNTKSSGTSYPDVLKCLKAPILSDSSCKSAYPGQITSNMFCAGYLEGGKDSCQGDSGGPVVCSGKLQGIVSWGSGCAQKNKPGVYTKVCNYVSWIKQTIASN

Experiments:
human α-thrombin = human α-thrombin (Homo sapiens, UniProt P00734); experiment: Determination of Ki for thrombin inhibition (chromogenic or fluorogenic substrate, Dixon)
trypsin = trypsin (Bos taurus, UniProt P00760); experiment: Ki values for trypsin, determined analogously; conditions: read-out: Ki Trypsin; Table 2, formula (III) compounds

SMILES: C[C@@H](O)[C@H](NS(=O)(=O)c1ccc2ccccc2c1)C(=O)N1CCC[C@H]1C(=O)NCc1ccc(C(=N)N)cc1
- Ki Trypsin/Ki Thrombin (human α-thrombin; Table 2, selectivity quotient): 10.4
- Ki (human α-thrombin; read-out: Ki Thrombin, Table 2, formula (III) compounds): 5.24 nM
- Ki (trypsin): 54.5 nM
